By UniProt entry, the sequences of proteins in these tests, tags left out.
UniProt P27338, whole entry: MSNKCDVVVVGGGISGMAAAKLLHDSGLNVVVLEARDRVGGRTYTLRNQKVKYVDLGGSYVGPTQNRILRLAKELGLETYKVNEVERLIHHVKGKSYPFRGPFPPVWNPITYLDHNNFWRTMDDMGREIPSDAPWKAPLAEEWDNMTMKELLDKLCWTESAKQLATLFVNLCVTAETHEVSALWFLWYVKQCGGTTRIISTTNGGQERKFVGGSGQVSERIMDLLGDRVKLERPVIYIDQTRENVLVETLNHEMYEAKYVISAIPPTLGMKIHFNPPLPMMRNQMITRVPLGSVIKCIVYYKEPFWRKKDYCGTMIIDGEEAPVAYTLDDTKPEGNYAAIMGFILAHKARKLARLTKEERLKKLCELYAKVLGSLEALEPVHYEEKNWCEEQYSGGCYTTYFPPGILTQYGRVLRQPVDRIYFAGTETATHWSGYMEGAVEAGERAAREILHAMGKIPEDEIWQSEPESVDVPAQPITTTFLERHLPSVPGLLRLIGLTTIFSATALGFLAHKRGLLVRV

According to ChEMBL document CHEMBL5705903, “A DNA Hypomethylation Signature Predicts Antitumor Activity of LSD1 Inhibitors in SCLC” (Cancer Cell, 2015):

Target: Amine oxidase [flavin-containing] B (Homo sapiens, UniProt P27338)
Experiment: Inhibition of MAO-B (unknown origin)

Structure (SMILES): c1ccc([C@@H]2C[C@H]2NC2CCNCC2)cc1
- IC50: 40 µM
